Structures can show the parent of a compound that is named as a salt.
Tested on: C57BL/6J mice
Test: Locomotor sensitization after repeated daily dosing (day 1 vs day 7)
Conditions: fentanyl 0.5, morphine 24, oliceridine 3 (first 30 min), SR-15099 12, SR-17018 12 mg/kg i.p.

| Compound | Locomotor sensitization after chronic daily dosing (day 7 vs day 1) |
| --- | --- |
| CN1CC[C@]23c4c5ccc(O)c4O[C@H]2[C@@H](O)C=C[C@H]3[C@H]1C5 [morphine, Morphine sulfate pentahydrate] | produced enhanced responses after chronic dosing |
| COc1ccsc1CNCC[C@@]1(c2ccccn2)CCOC2(CCCC2)C1 [oliceridine, Oliceridine hydrochloride] | sensitization was also observed following chronic daily dosing |
